Key:
[1] = target: Mitogen-activated protein kinase 13 (Homo sapiens) (UniProt O15264); conditions: Compound concentration 20.0 uM
[2] = target: T1, Zinc finger and BTB domain-containing protein 10 (Homo sapiens) (UniProt Q96DT7); conditions: SUD4
T1 sequence (whole entry): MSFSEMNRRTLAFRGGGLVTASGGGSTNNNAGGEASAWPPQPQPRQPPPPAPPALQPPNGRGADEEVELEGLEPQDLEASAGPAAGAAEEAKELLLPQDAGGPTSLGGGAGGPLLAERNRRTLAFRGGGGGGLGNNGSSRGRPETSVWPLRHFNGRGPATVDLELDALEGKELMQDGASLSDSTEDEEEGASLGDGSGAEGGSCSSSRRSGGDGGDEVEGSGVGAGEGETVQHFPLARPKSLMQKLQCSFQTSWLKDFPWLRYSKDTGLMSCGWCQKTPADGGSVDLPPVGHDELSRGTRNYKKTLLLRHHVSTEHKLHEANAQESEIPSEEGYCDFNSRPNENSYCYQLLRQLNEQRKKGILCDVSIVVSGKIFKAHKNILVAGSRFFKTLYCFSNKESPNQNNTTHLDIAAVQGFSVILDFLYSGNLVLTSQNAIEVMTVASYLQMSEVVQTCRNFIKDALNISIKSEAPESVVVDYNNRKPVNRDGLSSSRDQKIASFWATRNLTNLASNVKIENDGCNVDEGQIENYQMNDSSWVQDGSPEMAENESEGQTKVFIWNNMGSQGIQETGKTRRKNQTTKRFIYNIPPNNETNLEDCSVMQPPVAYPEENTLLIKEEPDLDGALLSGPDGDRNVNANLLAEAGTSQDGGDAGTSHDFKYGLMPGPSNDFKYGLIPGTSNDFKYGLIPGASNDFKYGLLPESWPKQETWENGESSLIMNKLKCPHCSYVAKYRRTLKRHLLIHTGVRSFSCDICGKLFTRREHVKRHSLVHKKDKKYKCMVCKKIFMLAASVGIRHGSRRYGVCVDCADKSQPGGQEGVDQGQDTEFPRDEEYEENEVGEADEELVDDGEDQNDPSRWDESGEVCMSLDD

Amino acid sequences for entries named in this document (tags omitted). A change or cut given only in a name is not applied to a line headed by its entry.
UniProt O15264: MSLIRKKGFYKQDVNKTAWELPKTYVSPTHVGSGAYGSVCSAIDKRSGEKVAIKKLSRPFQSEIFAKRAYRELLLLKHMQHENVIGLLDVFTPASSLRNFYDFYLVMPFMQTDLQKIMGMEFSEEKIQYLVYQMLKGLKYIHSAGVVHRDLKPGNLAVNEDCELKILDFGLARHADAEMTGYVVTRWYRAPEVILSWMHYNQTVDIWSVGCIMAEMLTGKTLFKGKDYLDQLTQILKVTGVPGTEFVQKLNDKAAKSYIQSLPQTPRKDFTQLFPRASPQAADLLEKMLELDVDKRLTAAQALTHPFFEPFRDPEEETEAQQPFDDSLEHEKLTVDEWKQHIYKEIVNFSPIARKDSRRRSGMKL

[3] = target: T2, Zinc finger and BTB domain-containing protein 1 (Homo sapiens) (UniProt Q9Y2K1); conditions: SUD4
T2 sequence (whole entry): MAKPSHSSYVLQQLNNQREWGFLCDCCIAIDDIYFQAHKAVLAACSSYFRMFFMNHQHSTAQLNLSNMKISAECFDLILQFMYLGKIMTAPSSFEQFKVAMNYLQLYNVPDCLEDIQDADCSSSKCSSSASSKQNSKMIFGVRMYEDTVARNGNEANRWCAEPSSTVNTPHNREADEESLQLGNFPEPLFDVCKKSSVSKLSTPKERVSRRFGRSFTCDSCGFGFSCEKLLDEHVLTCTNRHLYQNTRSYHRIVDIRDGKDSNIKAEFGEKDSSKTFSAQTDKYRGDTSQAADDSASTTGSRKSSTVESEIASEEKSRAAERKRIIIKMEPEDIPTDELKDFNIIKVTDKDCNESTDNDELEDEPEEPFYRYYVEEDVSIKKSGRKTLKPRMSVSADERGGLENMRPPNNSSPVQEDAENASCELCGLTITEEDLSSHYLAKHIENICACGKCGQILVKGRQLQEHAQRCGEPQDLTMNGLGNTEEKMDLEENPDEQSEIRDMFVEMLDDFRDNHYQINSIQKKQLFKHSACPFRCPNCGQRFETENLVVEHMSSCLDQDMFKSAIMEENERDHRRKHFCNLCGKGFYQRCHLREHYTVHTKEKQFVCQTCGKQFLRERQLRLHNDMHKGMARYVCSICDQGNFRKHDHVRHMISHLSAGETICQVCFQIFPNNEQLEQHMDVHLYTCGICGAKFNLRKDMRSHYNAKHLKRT

[4] = target: T3, Zinc finger and BTB domain-containing protein 9 (Homo sapiens) (UniProt Q96C00); conditions: OCI-Ly1
T3 sequence (whole entry): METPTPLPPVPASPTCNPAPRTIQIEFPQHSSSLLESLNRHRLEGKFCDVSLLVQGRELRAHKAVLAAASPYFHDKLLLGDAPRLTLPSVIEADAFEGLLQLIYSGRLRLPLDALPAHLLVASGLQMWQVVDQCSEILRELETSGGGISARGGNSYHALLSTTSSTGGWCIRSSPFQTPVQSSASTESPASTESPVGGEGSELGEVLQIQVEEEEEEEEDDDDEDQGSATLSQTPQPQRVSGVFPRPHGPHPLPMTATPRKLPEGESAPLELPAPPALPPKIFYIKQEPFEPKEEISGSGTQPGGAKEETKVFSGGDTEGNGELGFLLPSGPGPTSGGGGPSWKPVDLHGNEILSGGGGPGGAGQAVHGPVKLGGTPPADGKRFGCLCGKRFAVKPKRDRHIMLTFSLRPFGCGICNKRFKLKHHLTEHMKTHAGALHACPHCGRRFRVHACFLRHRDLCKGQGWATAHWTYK

[5] = target: T2, Zinc finger and BTB domain-containing protein 1 (Homo sapiens); conditions: OCI-Ly1

Tm [1]: 49 °C
Normalized abundances for DMSO [2]: 3600
Normalized abundances for compound [2]: 3670
Normalized abundances for DMSO [3]: 3560
Normalized abundances for compound [3]: 3500
Normalized abundances for DMSO [4]: 40.5
Normalized abundances for compound [4]: 39.8
Normalized abundances for DMSO [5]: 116
Normalized abundances for compound [5]: 111
Structure (SMILES): C[C@@H]1CN(c2ncc(Cl)c(Nc3ccc4c(c3)n(CCC(C)(C)O)c(=O)n4C)n2)C[C@H](C)C1(F)F

From ChEMBL document CHEMBL5058646 (2022)
